Reference: patent US20240043615A1, “AMINO ACID POLYMER-PLATINUM ANTICANCER DRUG CONJUGATES” (priority 2020, published 2024)

Columns and labels:
[1] = system: CT26 tumor; settings: CT26-tumor bearing mice; for Pt concentration in tumors versus time: i.v.
[2] = Spleen toxicity evaluation in mice; settings: mice after treatment
[3] = Plasma pharmacokinetics in tumor-free mice (Pt by ICP-OES); settings: 4 mg (Pt)/kg Pt-equivalent dosage
[4] = Body weight change in mice; settings: tumor-bearing mice; high dose P(G-A)-Asp-Pt is 3-fold higher than the oxaliplatin dose
[5] = system: normal human bronchial epithelial HBEC3-KT cells; settings: 20 μg (Pt)/mL, 30-60 min
[6] = system: human non-small cell lung cancer A549 cells; settings: 20 μg (Pt)/mL, 30-60 min

Poly L-Glutamic and poly L-Aspartic acid (Glu:Asp = 7:3)-L-Aspartic-Platinum [P(G-A)-Asp-Pt]
Pt concentration in tumors versus time ([1]; 12 mg (Pt)/kg): dramatic tumor accumulation with increased concentration
Pt concentration in tumors versus time ([1]; same dosage of oxaliplatin and P(G-A)-Asp-Pt): significantly higher
Pt concentration in tumor relative to cell culture IC50 ([1]; versus IC50 at 24 or 48 h): well above those in cell culture IC50 at 24 or 48 h
spleen appearance and weight [2]: minimal changes in spleen
Pt concentration in plasma versus time (circulation time) [3]: significantly prolonged circulation time
plasma AUC ([3]; versus oxaliplatin): higher AUC
body weight during the efficacy study [4]: stable bodyweight
cytotoxicity in HBEC3-KT cells [5]: little effect on normal HBEC3-KT cells
cytotoxicity in A549 cells [6]: selectively kills A549 cancer cells

Where two headings read alike, the source gives them in different places.
